From publication PMC7135997

Molecular target: rat cardiac troponin I (rat) (UniProt P23693)
Test: SEC-MALS; complex reconstituted from the three separately purified subunits mixed 1:1:1 in 6 mol/liter urea, dialysed, purified on Resource-Q; Superdex 200 5/150 GL in 50 mmol/liter Tris-HCl (pH 7.4), 5 mM MgCl2, 1 mmol/liter CaCl2, 100 mM NaCl, 100 mmol/liter tris(2-carboxyethyl)phosphine; also characterized by HPLC and ESI-MS

- stoichiometry N: 1
Substance: rat cardiac troponin C (from UniProt Q4PP99 1-161) (natural protein)
